Source: US20250353928A1

Target: human IgE (SUS-11) (human) (UniProt P01854)
Test: SPR (Biacore 8K), human IgE (SUS-11) captured via anti-IgE Le27, Fab as analyte, 1:1 fit

- Kd: 5.01 nM
Substance: Omalizumab Fab
